Data: PubChem BioAssay AID1851 (National Center for Advancing Translational Sciences (NCATS), 2009)
Most of the hits are listed elsewhere, so they are rarer here than in the full data. Records with an inconclusive call do not appear. Calls of active or inactive are those of the source. Calls follow the shape of the dose curve; as a rule, active = well fitted curve in the direction sought with a large enough effect; inconclusive = small, poorly fitted or top-dose-only effect, or effect the other way; inactive = no such curve, though single readings can be large or run the other way.
% is scaled to controls: 0 for no effect and ±100 for the full control effect.

By UniProt entry, the sequences of proteins in these tests, tags left out.
UniProt P08684, whole entry, looked up: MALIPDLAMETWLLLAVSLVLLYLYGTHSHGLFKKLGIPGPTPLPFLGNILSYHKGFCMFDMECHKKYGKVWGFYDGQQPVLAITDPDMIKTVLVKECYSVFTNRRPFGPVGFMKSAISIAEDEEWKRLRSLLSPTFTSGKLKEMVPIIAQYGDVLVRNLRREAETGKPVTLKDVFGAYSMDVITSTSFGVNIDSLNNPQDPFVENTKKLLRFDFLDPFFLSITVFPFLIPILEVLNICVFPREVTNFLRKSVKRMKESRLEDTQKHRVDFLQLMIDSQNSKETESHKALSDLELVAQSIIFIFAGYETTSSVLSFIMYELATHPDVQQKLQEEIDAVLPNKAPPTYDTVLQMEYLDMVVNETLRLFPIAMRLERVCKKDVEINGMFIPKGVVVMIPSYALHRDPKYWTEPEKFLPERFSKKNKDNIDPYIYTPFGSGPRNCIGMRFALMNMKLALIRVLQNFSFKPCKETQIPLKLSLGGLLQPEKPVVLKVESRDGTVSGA

What follows are compounds tested against Cytochrome P450 3A4 (Homo sapiens) (UniProt P08684) (assay: Cytochrome panel assay with activity outcomes). Conditions: recombinant CYP, pro-luciferin dealkylation, luminescence, p450-cyp3a4; at 11.4 µM (top of the series).
`CN(CCC(=O)O)C1=Nc2ccc(Cl)cc2C(c2ccccc2)=[N+]([O-])C1` was tested, and the activity, negative = inhibition was inactive: 4.39%.
